Where two headings read alike, the source gives them in different places. Marks after values point to notes of the source that are not given here.
Key:
[1] = read-out: Cmax (serum concentration), free SLs, after consumption of a serving of chicory juice containing 49 μmol of total SLs, ref Weng et al. [37]; cited from earlier work
[2] = target: T1, acetylcholinesterase (AChE) (Electrophorus electricus, UniProt O42275); test: ITC test of inhibition of acetylcholine hydrolysis by AChE; format: biochemical
[3] = target: T1, acetylcholinesterase (AChE); conditions: ITC, 36.6 °C; for ∆H (enthalpy change of interaction with AChE): AChE 1 μmol/L, ligand 1 mmol/L (extracts converted to lactucin content); for ∆G (affinity of the inhibitor): calculated from the Gibbs equation; for KA × 10^3 (binding constant): values × 10^3, n = 9, ± SD

Chains of the proteins cited; added tags and fusions are not shown. Residues count along the entry.
UniProt O42275, 24-633 limits assumed: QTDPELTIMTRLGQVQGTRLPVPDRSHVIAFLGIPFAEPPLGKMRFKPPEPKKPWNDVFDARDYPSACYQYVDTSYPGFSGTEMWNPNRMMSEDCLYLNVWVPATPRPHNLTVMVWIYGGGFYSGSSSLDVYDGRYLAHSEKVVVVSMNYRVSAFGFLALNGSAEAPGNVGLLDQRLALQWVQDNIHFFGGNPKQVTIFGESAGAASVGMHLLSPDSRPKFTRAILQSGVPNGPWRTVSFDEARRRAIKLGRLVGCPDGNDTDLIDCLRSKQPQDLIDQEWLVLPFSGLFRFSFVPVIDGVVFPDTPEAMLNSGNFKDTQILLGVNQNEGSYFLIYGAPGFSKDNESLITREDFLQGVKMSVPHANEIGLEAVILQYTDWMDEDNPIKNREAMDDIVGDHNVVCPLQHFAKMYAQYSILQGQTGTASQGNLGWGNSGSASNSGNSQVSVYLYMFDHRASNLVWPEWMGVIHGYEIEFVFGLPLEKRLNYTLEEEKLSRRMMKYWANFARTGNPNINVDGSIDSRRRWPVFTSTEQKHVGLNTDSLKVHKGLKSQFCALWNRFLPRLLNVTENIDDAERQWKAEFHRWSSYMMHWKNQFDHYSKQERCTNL

For `C=C1C(=O)OC2C3C(CO)=CC(=O)C3=C(C)CC(O)C12` (stereo not drawn), which Cmax [1] is on record?
Its Cmax is 143 nM.

What about the IC50 ([2]; inhibitor concentration causing 50% decrease in enzyme activity (converted to lactucine for extracts), n = 9, ± SD) of the same compound?
The IC50 was 3.11 µM.

And the Ki ([2]; read-out: KI (inhibition constant), dissociation constant of the enzyme–inhibitor complex, n = 9, ± SD)?
The Ki was 1.12 µM.

And the “∆H (enthalpy change of interaction with AChE)” value ([3]; n = 9, ± SD)?
The value was −166.93 ± 0.22 ^e kJ/mol.

What about the “∆G (affinity of the inhibitor)” value ([3]; n = 9, ± SD) of the same compound?
The value was −23.41 ± 1.82 ^a kJ/mol.

And the “∆S (entropy change)” value ([3]; n = 9, ± SD)?
Its value is −262.62 ± 6.21 ^b J/mol × K.

And the “KA × 10^3 (binding constant)” value [3]?
The value was 33.44 ± 0.21 ^a L/mol.

What about the “KA × 10^3 (binding constant)” value ([3]; listed as lactucin) of the same compound?
The value was 33.44 L/mol.

And the Kd ([3]; read-out: KD (dissociation constant), single binding site mode, n = 9, ± SD)?
Its Kd is 29.9 µM.

Which Cmax [1] does the source give for 11(S),13-dihydrolactucin here?
The Cmax was 116 nM.

For `C=C1C(=O)OC2C3C(CO)=CC(=O)C3=C(C)CC(OC(=O)Cc3ccc(O)cc3)C12` (stereo not drawn), which “∆H (enthalpy change of interaction with AChE)” value ([3]; n = 9, ± SD) is on record?
Its value is −74.45 ± 0.88 ^d kJ/mol.

And the “∆G (affinity of the inhibitor)” value ([3]; n = 9, ± SD)?
Its value is −22.41 ± 1.59 ^a kJ/mol.

What about the “∆S (entropy change)” value ([3]; n = 9, ± SD) of the same compound?
Its value is −262.27 ± 2.21 ^b J/mol × K.

What about the “KA × 10^3 (binding constant)” value [3] of the same compound?
Its value is 5.92 ± 0.11 ^d L/mol.

What about the “KA × 10^3 (binding constant)” value ([3]; listed as lactucopicrin) of the same compound?
The value was 5.92 L/mol.
